Measurements from patent US10059687B2, “Histone demethylase inhibitors” (CELGENE QUANTICEL RESEARCH, INC., priority 2015, dated 2018).

Molecular target: JMJD3 (Homo sapiens, UniProt O15054)
Test: In vitro enzyme inhibition assay for JMJD3 activity (TR-FRET)
Format: biochemical
Protocol: This assay determines the ability of a test compound to inhibit JMJD3 demethylase activity. Baculovirus expressed JMJD3 (GenBank Accession #NM-001080424, AA1043-end) was purchased from BPS Bioscience (Cat#50115).
The enzymatic assay of JMJD3 activity is based upon Time Resolved-Fluorescence Resonance Energy Transfer (TR-FRET) detection. The ability of test compounds to inhibit the activity of JMJD3 was determined in 384-well plate format under the following reaction conditions: 5 nM JMJD3, 250 nM H3K27me3-biotin labeled peptide (Anaspec cat #64367), 0.4 to 2 μM α-ketoglutaric acid in assay buffer of 50 mM HEPES, pH7.3, 0.005% Brij35, 0.5 mM TCEP, 0.2 mg/ml BSA, 50 μM sodium L-ascorbate, and 5 μM ammonium iron(II) sulfate. Reaction product was determined quantitatively by TR-FRET after the addition of detection reagent Phycolink Streptavidin-allophycocyanin (Prozyme) and Europium-anti-H3K27me2 antibody (PerkinElmer) in the presence of 5 mM EDTA in LANCE detection buffer (PerkinElmer) at a final concentration of 50 nM and 1 nM, respectively.
The assay reaction was initiated by the following: […] of the mixture of 750 nM H3K27me3-biotin labeled peptide and 1.2 to 6 μM alpha-ketoglutaric acid with 2 μL of 11-point serial diluted inhibitor in 3% DMSO were added to each well of plate, followed by the addition of 2 μl of 15 nM JMJD3 to initiate the reaction. The reaction mixture was incubated at RT for 30 min, and terminated by the addition of 6 μL of 5 mM EDTA in LANCE detection buffer containing 100 nM Phycolink Streptavidin-allophycocyanin and 2 nM Europium-anti-H3K27me2 antibody. Plates were read by EnVisionMultilabel Reader in TR-FRET mode (excitation at 320 nm, emission at 615 nm and 665 nm) after 1 hr incubation at RT. A ratio from the readout of 665/615 was calculated for each well and fitted to determine inhibition constant (IC50).

[1] = Table 4, cell gives A/B enantiomer values
[2] = Table 5, one class given per A and B pair

SMILES | IC50 [1] | IC50 [2]
Cc1ccc(N(C)c2ccc3c(c2)CN[C@H]3CNc2cnccc2C(=O)O)cc1 [Example 5B, 3-[({(1R)-5-[methyl(4-tolyl)amino]isoindolinyl}methyl)amino] pyridine-4-carboxylic acid] | 100 to 1000 nM | 1000 to 10000 nM
Cc1ccc(N(C)c2ccc3c(c2)CN[C@@H]3CNc2cnccc2C(=O)O)cc1 [Example 5A, 3-[({(1S)-5-[methyl(4-tolyl)amino]isoindolinyl}methyl)amino]pyridine-4-carboxylic acid] | 100 to 1000 nM | 1000 to 10000 nM
Cc1ccc(N(C)c2ccc3c(c2)CCN[C@H]3CNc2cnccc2C(=O)O)cc1 [Example 1B, 3-[({(1R)-6-[methyl(4-methylphenyl)amino]-1,2,3,4-tetrahydroisoquinolyl}methyl)amino]pyridine-4-carboxylic acid] | 100 to 1000 nM | 1000 to 10000 nM
Cc1ccc(N(C)c2ccc3c(c2)CCN[C@@H]3CNc2cnccc2C(=O)O)cc1 [Example 1A, 3-[({(1S)-6-[methyl(4-methylphenyl)amino]-1,2,3,4-tetrahydroisoquinolyl}methyl)amino]pyridine-4-carboxylic acid] | 100 to 1000 nM | 1000 to 10000 nM
